Protein sequences, listed by entry. Tags and fused reporters are not part of them.
UniProt O08914, whole entry: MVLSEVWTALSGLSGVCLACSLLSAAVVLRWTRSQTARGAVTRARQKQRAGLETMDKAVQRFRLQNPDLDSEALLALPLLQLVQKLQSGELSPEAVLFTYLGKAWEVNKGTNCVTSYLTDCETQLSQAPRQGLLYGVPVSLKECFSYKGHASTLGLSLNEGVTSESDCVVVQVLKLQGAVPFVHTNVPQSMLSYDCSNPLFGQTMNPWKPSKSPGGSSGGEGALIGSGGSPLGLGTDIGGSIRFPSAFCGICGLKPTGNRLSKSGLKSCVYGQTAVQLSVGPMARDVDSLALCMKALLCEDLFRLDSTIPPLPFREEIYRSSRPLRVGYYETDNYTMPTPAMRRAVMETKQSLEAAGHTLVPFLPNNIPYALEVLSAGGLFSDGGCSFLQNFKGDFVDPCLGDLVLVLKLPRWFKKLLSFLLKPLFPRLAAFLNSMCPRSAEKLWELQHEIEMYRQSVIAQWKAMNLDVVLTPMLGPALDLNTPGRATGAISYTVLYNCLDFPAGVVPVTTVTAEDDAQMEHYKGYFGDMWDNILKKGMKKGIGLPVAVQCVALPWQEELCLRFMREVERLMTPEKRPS

According to ChEMBL document CHEMBL1151798, “Monoacylglycerol lipase regulates 2-arachidonoylglycerol action and arachidonic acid levels” (Bioorg Med Chem Lett, 2008):

Target: Fatty-acid amide hydrolase 1 (Mus musculus, UniProt O08914)
Assay: Inhibition of FAAH-mediated [3H]anandamide hydrolysis in mouse brain
Type: tissue-based

## CCOP(=O)(OCC)Oc1nc(Cl)c(Cl)cc1Cl [CHLORPHRIFOS OXON]
  pIC50: 7.40

pIC50: −log10 of the molar value.
